In patent US20260167693A1 (ANGELES THERAPEUTICS, published 2026):

T1: CD19-ECD-GGSG-NLuc-AcV5 (human)
T1 construct: also called CD19-GGSG-NLuc-AcV5; Flag-CD19-GGSG-NLuc-AcV5
T1 chain: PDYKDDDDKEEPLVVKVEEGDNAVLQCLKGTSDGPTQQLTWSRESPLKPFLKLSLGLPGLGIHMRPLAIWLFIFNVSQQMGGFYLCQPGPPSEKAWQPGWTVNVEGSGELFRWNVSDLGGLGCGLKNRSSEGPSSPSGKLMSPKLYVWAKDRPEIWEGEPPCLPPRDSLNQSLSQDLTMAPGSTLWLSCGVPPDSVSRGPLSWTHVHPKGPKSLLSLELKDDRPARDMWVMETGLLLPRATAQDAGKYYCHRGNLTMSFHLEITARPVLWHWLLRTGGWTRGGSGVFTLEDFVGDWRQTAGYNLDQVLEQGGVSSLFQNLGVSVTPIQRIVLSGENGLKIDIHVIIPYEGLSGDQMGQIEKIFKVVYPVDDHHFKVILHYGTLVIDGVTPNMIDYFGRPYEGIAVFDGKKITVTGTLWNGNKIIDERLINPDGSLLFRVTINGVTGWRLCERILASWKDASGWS


Columns and labels:
[1] = biological target: T1, CD19-ECD-GGSG-NLuc-AcV5; assay: NLuc binding assay, SIR on Jurkat-NFAT-Luc cells; parental Jurkats 1515
[2] = biological target: T1, CD19-ECD-GGSG-NLuc-AcV5; assay: NLuc binding assay, SIR on primary human T cells
[3] = biological target: T1, CD19-ECD-GGSG-NLuc-AcV5; assay: NLuc binding assay, SIR on Jurkat-NFAT-Luc cells; parental Jurkats 996

NLuc value [1] | mean NLuc value [2] | NLuc value [3] | Binder
6360 |  |  | CD8SP-V5-[hTCRb-KACIAH]-F-P2A-CD8SP-2-CD19MM-vL-Gly-Ser-Linker-CD19MM-vH-Myc-[hTCRa-CSDVP]-F-F2A-PAC (other, Polyprotein PRT 3858; also called 082815-F06) TCR beta: GKPIPNPLLGLDSTGSGEDLKNVFPPEVAVFEPSKAEIAHTQKATLVCLATGFYPDHVELSWWVNGKEVHSGVCTDPQPLKEQPALNDSRYCLSSRLRVSATFWQNPRNHFRCQVQFYGLSENDEWTQDRAKPVTQIVSAEAWGRADCGITSASYHQGVLSATILYEILLGKATLYAVLVSALVLMAMVKRKDSRG TCR alpha: DIQLTQSPASLAVSLGQRATISCKASQSVDYDGDSYLNWYQQIPGQPPKLLIYDASNLVSGIPPRFSGSGSGTDFTLNIHPVEKVDAATYHCQQSTEDPWTFGGGTKLEIKGGGGSGGGGSGGGGSQVQLQQSGAELVRPGSSVKISCKASGYAFSSYWMNWVKQRPGQGLEWIGQIWPGDGDTNYNGKFKGKATLTADESSSTAYMQLSSLASEDSAVYFCARRETTTVGRYYYAMDYWGQGTTVTVSSEQKLISEEDGSGIQNPDPAVYQLRDSKSSDKSVCLFTDFDSQTNVSQSKDSDVYITDKCVLDMRSMDFKSNSAVAWSNKSDFACANAFNNSIIPEDTFFPSSDVPCDVKLVEKSFETDTNLNFQNLSVIGFRILLLKVAGFNLLMTLRLWSS
 | 39600 | 129000 | CD8SP-CD19Bu12-vL-V5-[TCRb-S57C-opt1]-F-P2A-SP-CD19Bu12-vH-Myc-[TCRa-T48C-opt1]-F-F2A-PAC (070215-M03)[SEQ ID NO:1021] (other, Polyprotein PRT 3256) TCR beta: EIVLTQSPATLSLSPGERATLSCSASSSVSYMHWYQQKPGQAPRLLIYDTSKLASGIPARFSGSGSGTDFTLTISSLEPEDVAVYYCFQGSVYPFTFGQGTKLEIKRGKPIPNPLLGLDSTGSGEDLKNVFPPEVAVFEPSEAEISHTQKATLVCLATGFYPDHVELSWWVNGKEVHSGVCTDPQPLKEQPALNDSRYCLSSRLRVSATFWQNPRNHFRCQVQFYGLSENDEWTQDRAKPVTQIVSAEAWGRADCGFTSESYQQGVLSATILYEILLGKATLYAVLVSALVLMAMVKRKDSRG TCR alpha: QVQLQESGPGLVKPSQTLSLTCTVSGGSISTSGMGVGWIRQHPGKGLEWIGHIWWDDDKRYNPALKSRVTISVDTSKNQFSLKLSSVTAADTAVYYCARMELWSYYFDYWGQGTLVTVSSEQKLISEEDGSGPDPAVYQLRDSKSSDKSVCLFTDFDSQTNVSQSKDSDVYITDKCVLDMRSMDFKSNSAVAWSNKSDFACANAFNNSIIPEDTFFPSPESSCDVKLVEKSFETDTNLNFQNLSVIGFRILLLKVAGFNLLMTLRLWSS
 | 5360 | 12100 | CD8SP-FMC63-vL-V5-[mTCRb-opt]-F-P2A-SP-FMC63-vH-Myc-[mTCRa-opt]-F-F2A-PAC (080815-B06)[SEQ ID NO:953] (other, Polyprotein PRT 3188) TCR beta: DIQMTQTTSSLSASLGDRVTISCRASQDISKYLNWYQQKPDGTVKLLIYHTSRLHSGVPSRFSGSGSGTDYSLTISNLEQEDIATYFCQQGNTLPYTFGGGTKLEITGKPIPNPLLGLDSTGSGEDLRNVTPPKVSLFEPSKAEIANKQKATLVCLARGFFPDHVELSWWVNGKEVHSGVSTDPQAYKESNYSYCLSSRLRVSATFWHNPRNHFRCQVQFHGLSEEDKWPEGSPKPVTQNISAEAWGRACGITSSYQQGVLSATILYEILLGKATLYAVLVSTLVVMAMVKRKNS TCR alpha: EVKLQESGPGLVAPSQSLSVTCTVSGVSLPDYGVSWIRQPPRKGLEWLGVIWGSETTYYNSALKSRLTIIKDNSKSQVFLKMNSLQTDDTAIYYCAKHYYYGGSYAMDYWGQGTSVTVSSEQKLISEEDGSGIQNPEPAVYQLKDPRSQDSTLCLFTDFDSQINVPKTMESGTFITDKTVLDMKAMDSKSNGAIAWSNQTSFTCQDIFKETNATYPSSDVPCDATLTEKSFETDMNLNFQNLSVMGLRILLLKVAGFNLLMTLRLWSS
2180 |  |  | CD8SP-FMC63-vL-V5-[hTCRg-opt]-F-P2A-SP-FMC63-vH-Myc-[hTCRd-opt]-F-F2A-PAC (091015-A06)[SEQ ID NO:949] (other, TCR gamma and delta constant chains; Polyprotein PRT 3184) chain 1: DIQMTQTTSSLSASLGDRVTISCRASQDISKYLNWYQQKPDGTVKLLIYHTSRLHSGVPSRFSGSGSGTDYSLTISNLEQEDIATYFCQQGNTLPYTFGGGTKLEITGKPIPNPLLGLDSTGSGDKQLDADVSPKPTIFLPSIAETKLQKAGTYLCLLEKFFPDVIKIHWQEKKSNTILGSQEGNTMKTNDTYMKFSWLTVPEKSLDKEHRCIVRHENNKNGVDQEIIFPPIKTDVITMDPKDNCSKDANDTLLLQLTNTSAYYMYLLLLLKSVVYFAIITCCLLRRTAFCCNGEKS chain 2: EVKLQESGPGLVAPSQSLSVTCTVSGVSLPDYGVSWIRQPPRKGLEWLGVIWGSETTYYNSALKSRLTIIKDNSKSQVFLKMNSLQTDDTAIYYCAKHYYYGGSYAMDYWGQGTSVTVSSEQKLISEEDGSGSQPHTKPSVFVMKNGTNVACLVKEFYPKDIRINLVSSKKITEFDPAIVISPSGKYNAVKLGKYEDSNSVTCSVQHDNKTVHSTDFEVKTDSTDHVKPKETENTKQPSKSCHKPKAIVHTEKVNMMSLTVLGLRMLFAKTVAVNFLLTAKLFFL
 |  | 102000 | CD8SP-CD19MM-vL-V5-[TCRb-S57C-opt1]-F-P2A-SP-CD19MM-vH-Myc-[TCRa-T48C-opt1]-F-F2A-PAC (other, Polyprotein PRT 3345; also called 071715-C06) TCR beta: DIQLTQSPASLAVSLGQRATISCKASQSVDYDGDSYLNWYQQIPGQPPKLLIYDASNLVSGIPPRFSGSGSGTDFTLNIHPVEKVDAATYHCQQSTEDPWTFGGGTKLEIKGKPIPNPLLGLDSTGSGEDLKNVFPPEVAVFEPSEAEISHTQKATLVCLATGFYPDHVELSWWVNGKEVHSGVCTDPQPLKEQPALNDSRYCLSSRLRVSATFWQNPRNHFRCQVQFYGLSENDEWTQDRAKPVTQIVSAEAWGRADCGFTSESYQQGVLSATILYEILLGKATLYAVLVSALVLMAMVKRKDSRG TCR alpha: QVQLQQSGAELVRPGSSVKISCKASGYAFSSYWMNWVKQRPGQGLEWIGQIWPGDGDTNYNGKFKGKATLTADESSSTAYMQLSSLASEDSAVYFCARRETTTVGRYYYAMDYWGQGTTVTVSSEQKLISEEDGSGPDPAVYQLRDSKSSDKSVCLFTDFDSQTNVSQSKDSDVYITDKCVLDMRSMDFKSNSAVAWSNKSDFACANAFNNSIIPEDTFFPSPESSCDVKLVEKSFETDTNLNFQNLSVIGFRILLLKVAGFNLLMTLRLWSS
